Experimental data taken from PubChem BioAssay AID602405 (Broad Institute, 2012).
The list shows a part of the results, in another mix than the full data. Some salts or complexes appear as unconnected parts, following the source record. The source made the active and inactive calls. Rule as the data show it: active = inhibition above about 16% (passing the limit was not always enough); inconclusive = no clear call, values can overlap the other calls; inactive = below that.

tested on: UDP-N-acetylbacillosamine N-acetyltransferase PglD (Campylobacter jejuni); experiment: blockers of PglD enzyme activity – biochemical, DTNB colorimetric, single point, primary screen (AID 602405); conditions: purified PglD enzyme, DTNB colorimetric CoA detection; at 12.5 µM; active compounds read high

| Structure (SMILES) | inhibition |
| --- | --- |
| O=[N+]([O-])c1cc([N+](=O)[O-])c(-c2cnn(-c3ccccc3)c2)c([N+](=O)[O-])c1 | inactive: 3.06% |
| Cc1nc2ccc3ccccc3c2s1.O=[N+]([O-])c1cc([N+](=O)[O-])c(O)c([N+](=O)[O-])c1 | inactive: -7.13% |
| O=[N+]([O-])c1cc([N+](=O)[O-])c(-n2nnc3ccccc32)c([N+](=O)[O-])c1 | inactive: -13.1% |
| CN(Cc1cccnc1)C(=O)COc1ccc(Cl)c(Cl)c1.O=[N+]([O-])c1cc([N+](=O)[O-])c(O)c([N+](=O)[O-])c1 | inactive: -2.5% |
| COc1ccccc1OP(C)(=O)Nc1c(C)cccc1C (stereo not given) | inactive: 0.098% |
| CCCOc1ccc(NP(C)(=O)Oc2ccc(Cl)cc2)cc1 (stereo not given) | inactive: 1.24% |
| O=[N+]([O-])c1cc([N+](=O)[O-])c(Nc2nnnn2CCO)c([N+](=O)[O-])c1 | inactive: -2.48% |
| CC1=C2N=C(C=C3N=C(C(C)=C4[N-][C@@](C)([C@@H]5N=C1[C@](C)(CCC(=O)NC[C@@H](C)OP(=O)([O-])O[C@H]1[C@@H](O)[C@@H](n6cnc7cc(C)c(C)cc76)O[C@@H]1CO)[C@H]5CC(N)=O)[C@@](C)(CC(N)=O)[C@@H]4CCC(N)=O)[C@@](C)(CC(N)=O)[C@@H]3CCC(N)=O)C(C)(C)[C@@H]2CCC(N)=O.[C-]#N.[Co+3] | inactive: -0.95% |
| CCOC(=O)C(CC)C1=NC(C)(C)Cc2ccccc21.O=[N+]([O-])c1cc([N+](=O)[O-])c(O)c([N+](=O)[O-])c1 (stereo not given) | inactive: -0.419% |
| CC1=NCCc2c1[nH]c1ccccc21.O=[N+]([O-])c1cc([N+](=O)[O-])c(O)c([N+](=O)[O-])c1 | inactive: -1.46% |
| O=C(O)c1cccc(Nc2c([N+](=O)[O-])cc([N+](=O)[O-])cc2[N+](=O)[O-])c1 | inactive: -6.16% |
| Cc1ccc(C)c(NP(C)(=O)Oc2ccccc2)c1 (stereo not given) | inactive: 2.33% |
| Cc1cc(C)cc(OP(C)(=O)Nc2ccccn2)c1 (stereo not given) | inactive: 1.96% |
| COc1ccccc1OP(C)(=O)Nc1cccc(Br)c1 (stereo not given) | inactive: -0.625% |
| Cc1cc(C)cc(OP(C)(=O)Nc2ccc(C)cc2C)c1 (stereo not given) | inactive: 5.25% |
| COc1ccccc1OP(C)(=O)Nc1ccc(C)cc1 (stereo not given) | inactive: -1.53% |
| Cc1ccc(NP(C)(=O)Oc2ccccc2)c(C)c1 (stereo not given) | inactive: -0.307% |
| CCOC(=O)c1ccc(NP(C)(=O)Oc2ccccc2)cc1 (stereo not given) | inactive: -2.12% |
| Cc1cc(C)cc(OP(C)(N)=O)c1 (stereo not given) | inactive: 1.79% |
| COc1ccc(OP(C)(=O)Nc2cccc(F)c2)cc1 (stereo not given) | inactive: -1.67% |
| O=[N+]([O-])c1cc([N+](=O)[O-])c(Nc2cccnc2)c([N+](=O)[O-])c1 | inactive: -4.65% |
| CP(=S)(Nn1cnnc1)Oc1ccccc1 (stereo not given) | inactive: 5.75% |
| CCOC(=O)c1ccc(NP(C)(=O)Oc2ccc(OC)cc2)cc1 (stereo not given) | inactive: -6.78% |
| O=[N+]([O-])c1cc([N+](=O)[O-])c(O)c([N+](=O)[O-])c1.c1ccc(Oc2ccncc2)cc1 | inactive: -0.595% |

| Structure (SMILES) | inhibition |
| --- | --- |
| CCOP(C)(=S)SCC(=O)NC(C)C(=O)O (stereo not given) | inactive: 5.01% |
| CP(=O)(Nc1ccccn1)Oc1ccc(Cl)cc1 (stereo not given) | inactive: 3.98% |
| Cc1ccc(Nc2c([N+](=O)[O-])cc([N+](=O)[O-])cc2[N+](=O)[O-])cc1 | inactive: -0.195% |
| Cc1cccc(C)c1OP(C)(=O)Nc1ccc(SC(F)(F)F)cc1 (stereo not given) | inactive: -5.29% |
| CP(=O)(Nc1ccc(SC(F)(F)F)cc1)Oc1ccc(Cl)cc1 (stereo not given) | inactive: 2.35% |
| CP(=O)(Oc1ccccc1)OC(c1ccccc1)C(F)(F)F (stereo not given) | inactive: -3.6% |
| CCc1ccc(OP(C)(=O)N2CCN(c3ccc([N+](=O)[O-])cc3)CC2)cc1 (stereo not given) | inactive: -16.7% |
| CC(C)(C)c1ccc(OP(C)(=O)O)cc1 | inactive: -0.274% |
| COc1ccccc1OP(C)(=O)Nc1ccccc1Br (stereo not given) | inactive: 4.29% |
| CP(=O)(Nc1ccc(Cl)cc1)Oc1ccc(F)cc1 (stereo not given) | inactive: -0.155% |
| CCN(CC)CC(O)COC(=O)C(O)(c1ccccc1)C1CCCCC1 (stereo not given) | inactive: 9.43% |
| COc1ccc(OP(C)(=O)Nc2ccc(Br)cc2)cc1 (stereo not given) | inactive: -1.52% |
| COc1ccccc1OP(C)(=O)Nc1c(C)n(C)n(-c2ccccc2)c1=O (stereo not given) | inactive: -4.92% |
| O=C(OCCCN1CCCC1)C(O)(c1ccccc1)C1CCCCC1 (stereo not given) | inactive: -11% |
| CP(=O)(Oc1ccccc1)N1CCOC1=O (stereo not given) | inactive: -0.786% |
| CCc1ccc(OP(C)(=O)Nc2cccnc2)cc1 (stereo not given) | inactive: 3.98% |
| CCOC(=O)c1ccc(NP(C)(=O)Oc2ccc(Cl)cc2)cc1 (stereo not given) | inactive: 8.79% |
| CP(=O)(OC12CC3CC(CC(C3)C1)C2)OC12CC3CC(CC(C3)C1)C2 | inactive: 2.13% |
| CP(=O)(Nc1ccc(Cl)cc1Cl)Oc1ccccc1 (stereo not given) | inactive: -2.62% |
| O=C1C(O)=C([N+](=O)[O-])C(=O)C(O)=C1[N+](=O)[O-] | inactive: 6.17% |
| O=[N+]([O-])c1cc([N+](=O)[O-])c(Nc2ccccn2)c([N+](=O)[O-])c1 | inactive: -7.6% |
| CP(=O)(Nc1ccccn1)Oc1ccccc1 (stereo not given) | inactive: 10.4% |
| COc1ccccc1OP(C)(=O)Nc1ccc(C)cc1C (stereo not given) | inactive: -0.534% |
| CCc1ccc(OP(C)(=O)O)cc1 | inactive: -10.3% |

| Structure (SMILES) | inhibition |
| --- | --- |
| COc1ccccc1OP(C)(=O)Nc1ccc(Br)cc1 (stereo not given) | inactive: -0.278% |
| COc1ccc(OP(C)(=O)Nc2ccccn2)cc1 (stereo not given) | inactive: 1.31% |
| CN(C)CCOC(=O)C(O)(c1ccccc1)C1CCCC1 (stereo not given) | inactive: 0.356% |
| O=C(OCCN1CCN(CCOCc2ccccc2)CC1)C(O)(c1ccccc1)c1ccccc1 | inactive: -3.16% |
| COc1ccc2c(c1O)-c1c(O)c(OC)cc3c1[C@H](C2)[N+](C)(C)CC3.O=[N+]([O-])c1cc([N+](=O)[O-])c([O-])c([N+](=O)[O-])c1[O-] | inactive: 1.31% |
| O=[N+]([O-])c1cc([N+](=O)[O-])c(Nc2ccc(Cl)cc2)c([N+](=O)[O-])c1 | inactive: 3.13% |
| CP(=O)(Nc1ccccc1F)Oc1ccccc1 (stereo not given) | inactive: 2.23% |
| Cc1c([N+](=O)[O-])cc([N+](=O)[O-])c(Br)c1[N+](=O)[O-] | inactive: -0.667% |
| CCN(CC)CCCOC(=O)C(O)(c1ccccc1)C1CCCCC1 (stereo not given) | inactive: -1.72% |
| CP(=O)(Nc1ccccc1)Oc1ccc(F)cc1 (stereo not given) | inactive: -2.24% |
| O=[N+]([O-])c1cc([N+](=O)[O-])c(OC2CCCCC2O)c([N+](=O)[O-])c1 (stereo not given) | inactive: -4.26% |
| CCCCCOc1ccc(NP(C)(=O)Oc2ccc(Cl)cc2Cl)cc1 (stereo not given) | inactive: -4.02% |
| CCOC(=O)c1ccc(NP(C)(=O)Oc2ccc(F)cc2)cc1 (stereo not given) | inactive: 2.37% |
| O=[N+]([O-])c1ccc(OP2(=O)COCCO2)cc1 (stereo not given) | inactive: 1.92% |
| Cc1cc(-c2cccc3ccccc23)c(C)cn1.O=[N+]([O-])c1cc([N+](=O)[O-])c(O)c([N+](=O)[O-])c1 | inactive: -1.79% |
| Cc1c(C(c2ccc3c(c2)OCO3)c2c(C)n(C)n(-c3ccccc3)c2=O)c(=O)n(-c2ccccc2)n1C.O=[N+]([O-])c1cc([N+](=O)[O-])c(O)c([N+](=O)[O-])c1 | inactive: -5.79% |
| COc1ccc(OP(C)(=O)Nc2cccc(Br)c2)cc1 (stereo not given) | inactive: 1.47% |
| CN(C)CCOC(=O)C(O)(c1ccccc1)C1CCCCC1 (stereo not given) | inactive: 3.64% |
| COc1ccc(NP(C)(=O)Oc2ccccc2OC)cc1 (stereo not given) | inactive: -0.913% |
| CP(=O)(Nc1ccc2c(c1)OCCO2)Oc1ccccc1 (stereo not given) | inactive: 4.18% |
| Cc1ccccc1NP(C)(=O)Nc1ccccc1C | inactive: -1.23% |
| CCOP(C)(=S)SCC(=O)NC(C)(CC)C(=O)O (stereo not given) | inactive: 0.764% |
